Laboratory results from article PMC11320734 (ACS Pharmacology & Translational Science, 2024).
Where “and” joins values, the source holds several entries; their conditions need not be identical. Equal entries are not always repeated.

The chains behind the UniProt entries cited, without tags or fusion partners.
UniProt P34972, whole entry: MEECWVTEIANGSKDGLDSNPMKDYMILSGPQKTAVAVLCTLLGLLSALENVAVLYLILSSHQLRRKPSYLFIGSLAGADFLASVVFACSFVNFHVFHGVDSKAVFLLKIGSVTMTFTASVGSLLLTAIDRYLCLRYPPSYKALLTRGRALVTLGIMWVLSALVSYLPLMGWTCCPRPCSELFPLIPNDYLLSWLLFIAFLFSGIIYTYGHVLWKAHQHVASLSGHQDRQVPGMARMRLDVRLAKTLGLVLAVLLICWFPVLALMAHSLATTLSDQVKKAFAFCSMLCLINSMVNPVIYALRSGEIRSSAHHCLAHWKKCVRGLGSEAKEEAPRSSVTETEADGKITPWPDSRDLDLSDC

Target: human CB2R (hCB2R) (Homo sapiens, UniProt P34972)
Test: Radioligand binding to membranes of CHO cells overexpressing hCB2R
Settings: for Bmax: CHO-hCB2R membranes; for signal-to-background value: at 250 nM radioligand; for Kd: radioligand on CHO-hCB2R membranes, nonspecific with 10 μM WIN 55,212–2
Procedure: Figure 3 [^3H]-RNB-61 and [^14C]-RNB-61 to label CB2 receptors. (A) Concentration–response of membrane binding of [^3H]-RNB-61 and [^14C]-RNB-61 on CHO cells recombinantly expressing the human CB2R (hCB2R) (n = 4–6, Bmax = 8529 ± 477 cpm, Kd = 3.08 ± 0.61 nM for [^3H]-RNB-61 and Bmax = 76.5 ± 13.9 cpm, Kd = 3.62 ± 2.31 nM for [^14C]-RNB-61). The nonspecific binding was calculated by preincubating the cells with 10 μM of WIN 55,212–2. (B) The top image depicts four representative images of spleen slices incubated in 200 nM of [^14C] RNB-61. Images were acquired using the Typhoon FLA 9500 imaging system. The bottom plot depicts the radioactivity of spleen membrane preparations from either wild-type (WT) rat, WT mouse, or the CB2R knockout mouse strain (n = 6–13 spleen slices of 3 animals for each condition). […] (C) 17 different cell lines (CHO cells, immune cells, neuronal cells, miscellaneous cells) were incubated with 1 nM of [^3H]-RNB-61 and either vehicle or 1 μM of WIN55,212–2. The volcano plot depicts the difference between the vehicle and the WIN-treated cells on the x axis and the negative logarithm of the p-value on the y-axis. Only the hCB2 overexpressing CHO cells and immune cells were statistically significant in CB2R-specific labeling (p < 0.01). No significant labeling was detected in any of the neuronal cell lines (SHSY5Y, Neuro2a, NT18G2). (D) CB2R expression measured in cpm in ex vivo spleen slices from mice challenged with LPS detected with the administration of 200 nM [^14C]RNB-61. The bar chart depicts the specific signal, which was attained by subtracting the nonspecific signal (10 μM of WIN-55,212 co- incubation). LPS induced a statistically significant increase in CB2R expression at various time points (6–24h), which was completely absent in the CB2R KO mice. TEXT PRINTED IN THE PICTURE: (A) [^3H]-RNB-61: Bmax = 8529±477 cpm; Kd = 3.08±0.61 nM | (A) [^14C]-RNB-61: Bmax = 76.5±13.9 cpm; Kd = 3.62±2.31 nM

With `[3H]C([3H])([3H])n1c(C(C)(C)C)cc(=NC(=O)c2cc(C(F)(F)F)ccc2OCC(C)(C)O)n1CC1CCC1` the Bmax was 8529 ± 477 cpm, the signal-to-background value was 6.0 and the Kd was < 4 nM and 3.08 nM.

`CC(C)(O)COc1ccc(C(F)(F)F)cc1C(=O)N=c1cc(C(C)(C)C)n([14CH3])n1CC1CCC1` was tested, and the Bmax was 76.5 ± 13.9 cpm, the signal-to-background value was 1.6 and the Kd was < 4 nM and 3.62 nM.
